Test results from US11002728B2, “Method for evaluating activity of G protein-coupled receptor (GPCR)” (RIKEN, priority 2017, dated 2021).

Molecular target: HaloTag-fused mGluR3 (UniProt P0A3G2+Q9QYS2, A155T/A167V/A172T/A224E/C128F/C176G/D78G/E160K/E257K/H272N/K175M/K195N/L47V/L88M/N227D/S58T/T264A/Y273L/Y87F)
Assay: Saturation binding experiment of HaloTag TMR ligand
Parameters: species or system mouse
Procedure: HaloTag-fused or non-fused mGluR3 pDNA (1 μg/60-mm dish) was transfected into HEK293 cells grown to a confluence of about 70% by the lipofection method described above. […] After TMR staining, the 60-mm dish was washed with 3 mL of HBSS three times. The cells were suspended in buffer C (500 μL, 10 mM HEPES (pH 7.5), 140 mM NaCl, 4 mM KOH, 1 mM MgCl2, and 1.5 mM CaCl2) and were collected in a 1.5-mL tube. After centrifugation, the cellular precipitate was solubilized with 200 μL of buffer C containing 1% Triton X. After centrifugation again, the supernatant was collected, and the concentration of TMR bound to the solubilized receptor was quantified with a fluorescence spectrophotometer (RF-5300PC, Shimadzu). The sample was excited at 540 nm. The scattered light of the excitation light was removed with an 057 cut-off filter, and the fluorescence spectrum was then measured. As a standard sample, the TMR ligand in a known concentration was used (FIG. 2(a, b)). The non-specific binding was estimated by using a membrane fraction expressing mGluR3 not fused with HaloTag (FIG. 2(c)). The specific binding to HaloTag-fused mGluR3 was calculated by subtracting non-specific binding from the total binding amount to the cells expressing HaloTag-fused mGluR3. The specific binding and the non-specific binding were fitted using the following Hill equation (n: Hill coefficient).

Q: How did the mGluR3 labeled (300 nM TMR ligand, estimated from the regression curve) turn out when `CN(C)c1ccc2c(-c3cc(C(=O)NCCOCCOCCCCCCCl)ccc3C(=O)[O-])c3ccc(=[N+](C)C)cc-3oc2c1` was run?
A: about 95%

Q: And the EC50 (read-out: EC50 of specific binding to HaloTag-fused mGluR3 (regression curve), HEK293 cells, 30 minutes, FIG. 2(c))?
A: 63 nM

Q: What about the Hill coefficient (regression curve, FIG. 2(c)) of the same compound?
A: 1.9
